Laboratory results reported in US20250214965A1, “COMPOUND AS KIF18A INHIBITOR” (Hangzhou Innogate Pharma Co., Ltd., priority 2021, published 2025).

Assay: Pharmacokinetic study in rats
Settings: male SD rats, oral 3 mg/kg
Description: Instruments: XEVO TQ-S LC/MS instrument was produced by Waters. All measurement data were collected and processed by Masslynx V4.1 software, and the data were calculated and processed by Microsoft Excel. The statistical moment method of WinNonLin 8.0 software was used to calculate the pharmacokinetic parameters. These mainly include kinetic parameters Tmax, T1/2, Cmax, AUC0-24h etc. Column: ACQUITY UPLC BEH C18 (2.1 mm×50 mm, 1.7 m); column temperature 40° C.; mobile phase A is water (0.1% formic acid), mobile phase B is acetonitrile, flow rate is 0.350 mL/min, gradient elution is adopted, the elution gradient is 0.50 min: 10% B; 1.50 min: 90% B; 2.50 min: 90% B; 2.51 min: 10% B; 3.50 min: stop. Injection volume: 1 μL.
Animals: 3 male SD rats with a weight range of 200-220 g were purchased and kept in the laboratory of the Experimental Animal Center for 2 days and then used. They were fasted for 12 hours predose and 4 hours after dosing. Drinking water was free during the test. After the rats were gavage, blood samples were taken according to the established time point.
Solvent: 0.4% ethanol+0.4% Tween80+99.2% (0.5% methylcellulose M450). Preparation of the solution for intragastrical administration: the compounds were accurately weighed and added to the solvent, and ultrasound was used at room temperature for 5 minutes to completely dissolve the drug, and a 0.3 mg/mL medicinal solution was prepared.
Pharmaceutical samples: Generally, multiple samples with similar structures (with a molecular weight difference of more than 2 units) are taken, accurately weighed, and administered together (cassette PK). In this way, multiple compounds can be screened at the same time and their oral absorption rates can be compared. A single administration was also used to study the pharmacokinetics of the drug sample in rats.
After intragastrical administration, blood was taken from the orbit at 0.25, 0.5, 1, 2, 4, 8, 10 and 24 hours. Then 50 μL of the plasma sample was taken and added 200 μL of acetonitrile (including internal standard control verapamil 2 ng/mL), vortexed for 3 min and centrifuged at 20000 rcf, 4° C. for 10 min. The supernatant plasma was used for LC-MS/MS analysis.
The compounds were accurately weighed to prepare different concentrations, and quantitative analysis on mass spectrometry was performed to establish a standard curve, and then the concentration of the above-mentioned compound in the plasma was tested to obtain its concentration at different time points. All measurement data were collected and processed by relevant software, and the statistical moment method was used to calculate the pharmacokinetic parameters (mainly including kinetic parameters Tmax, T1/2, Cmax, AUC0-24h etc).

Cc1cc(NC(=O)c2ccc(NS(=O)(=O)[C@H](C)CO)cc2N2CCC(=C(F)F)CC2)nc(N2CCC(F)(F)CC2)c1F
AUC0-24 h: 5.6347 µg·h/mL
Cmax: 0.42435 µg/mL
T1/2: 6.99 h
Tmax: 6.00 h
